In patent publication US8247227B2, “Dendritic cell precursors” (The Cleveland Clinic Foundation, priority 2006, dated 2012):

System: L-selectin^low T cells
Test: T cell co-cultures with variously conditioned DCs
Format: cell-based, mouse
Settings: DCs from other conditioning treatments
Protocol: FIGS. 8A-B show the impact of initial Step 1 DC conditioning treatments upon later T cell cultures. Step 2 DC cultures were performed in rGMCSF and rIL-4 with irradiated MCA-203 cells added at 24 hr and CpG+LPS added at 44 hr. Four hours later, DCs were harvested for co-culture with L-selectin^low T cells freshly harvested from MCA-203 tumor-bearing mice. T cells were co-cultured with DCs at an 8:1 ratio or were activated with immobilized anti-CD3. FIG. 8A is a series of slides showing individual T cell cultures after 6 day co-culture with DCs (labels indicate prior DC conditioning treatments) or with anti-CD3. Cultures shown also received exogenous IL-2, IL-7 and IL-15. This is representative of three full comparison experiments. FIG. 8B is a graph showing the response of conditioned DCs to adoptive therapy. […] Five day established MCA-203 subcutaneous tumors were treated i.v. with T cells from MCA-203 bearers after 12 day culture driven by Flt3-L+IL-6 conditioned DCs or by anti-CD3. Conventional non-myelablative total body irradiation (500 cGy) was given as an adjunct prior to T cells.
FIGS. 13A-B show T cell expansion. […] Cultures shown also received exogenous IL2, IL7 and IL15. FIG. 13B is a graph tabulating T cell expansions. […]

## IL2
  rescue of DC toxicity to T cells by exogenous cytokine: could not be rescued
